Among the data in publication PMC7245249 (Biomedical Journal, 2020) are CC50 values, retold here.

This data set is described as follows: in vitro. The note with it: cat (Felis catus).

For `COc1ccc(C[C@H]2NC[C@H](O)[C@H]2OC(C)=O)cc1` [Anisomycin], the CC50 was found to be 0.047 ± 0.012 µM.
